Measured values taken from patent US8377955B2, “Branched 3- and 6-substituted quinolines as CGRP receptors antagonists” (Merck, Sharp & Dohme, Corp., priority 2008, dated 2013).

Protein sequences, listed by entry. Tags and fused reporters are not part of them. Residues count along the entry.
UniProt O60894, 27-148 limits assumed: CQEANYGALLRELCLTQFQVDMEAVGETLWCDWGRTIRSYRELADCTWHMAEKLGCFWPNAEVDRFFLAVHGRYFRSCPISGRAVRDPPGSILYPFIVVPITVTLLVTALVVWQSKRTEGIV
UniProt Q16602, 23-461 limits assumed: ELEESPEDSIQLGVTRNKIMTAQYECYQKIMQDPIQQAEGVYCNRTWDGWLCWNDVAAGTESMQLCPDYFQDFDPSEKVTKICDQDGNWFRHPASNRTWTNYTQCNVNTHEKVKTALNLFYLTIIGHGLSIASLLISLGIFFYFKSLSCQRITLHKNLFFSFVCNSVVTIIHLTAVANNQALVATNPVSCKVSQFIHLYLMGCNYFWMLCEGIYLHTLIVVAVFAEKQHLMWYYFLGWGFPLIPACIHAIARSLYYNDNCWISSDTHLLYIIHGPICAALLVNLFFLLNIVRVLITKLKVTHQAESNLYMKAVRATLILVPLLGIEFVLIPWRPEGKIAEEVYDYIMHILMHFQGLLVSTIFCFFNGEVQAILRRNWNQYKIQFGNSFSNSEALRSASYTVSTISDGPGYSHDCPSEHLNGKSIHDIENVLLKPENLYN

molecular target: Human CGRP receptor (Homo sapiens, UniProt O60894+Q16602); test: Human CGRP receptor binding (125I-CGRP displacement); details: table of Examples 3-31
Experimental: NATIVE RECEPTOR BINDING ASSAY: The binding of ^125I-CGRP to receptors in SK-N-MC cell membranes was carried out essentially as described (Edvinsson et al. (2001) Eur. J. Pharmacol. 415, 39-44). Briefly, membranes (25 μg) were incubated in 1 mL of binding buffer [10 mM HEPES, pH 7.4, 5 mM MgCl2 and 0.2% bovine serum albumin (BSA)] containing 10 pM ^125I-CGRP and antagonist. After incubation at room temperature for 3 h, the assay was terminated by filtration through GFB glass fibre filter plates (PerkinElmer) that had been blocked with 0.5% polyethyleneimine for 3 h. The filters were washed three times with ice-cold assay buffer (10 mM HEPES, pH 7.4 and 5 mM MgCl2), then the plates were air dried. Scintillation fluid (50 μL) was added and the radioactivity was counted on a Topcount (Packard Instrument). Data analysis was carried out by using Prism and the Ki was determined by using the Cheng-Prusoff equation (Cheng & Prusoff (1973) Biochem. Pharmacol. 22, 3099-3108).
RECOMBINANT RECEPTOR: Human CL receptor (Genbank accession number L76380) was subcloned into the expression vector pIREShyg2 (BD Biosciences Clontech) as a 5′NheI and 3′ PmeI fragment. Human RAMP1 (Genbank accession number AJ001014) was subcloned into the expression vector pIRESpuro2 (BD Biosciences Clontech) as a 5′NheI and 3′NotI fragment. HEK 293 cells (human embryonic kidney cells; ATCC #CRL-1573) were cultured in DMEM with 4.5 g/L glucose, 1 mM sodium pyruvate and 2 mM glutamine supplemented with 10% fetal bovine serum […], 100 units/mL penicillin and 100 μg/mL streptomycin, and maintained at 37° C. and 95% humidity. Cells were subcultured by treatment with 0.25% trypsin with 0.1% EDTA in HBSS. Stable cell line generation was accomplished by co-transfecting 10 μg of DNA with 30 μg Lipofectamine 2000 (Invitrogen) in 75 cm^2 flasks. CL receptor and RAMP1 expression constructs were co-transfected in equal amounts. Twenty-four hours after transfection the cells were diluted and selective medium (growth medium+300 μg/mL hygromycin and 1 μg/mL puromycin) was added the following day. A clonal cell line was generated by single cell deposition utilizing a FACS Vantage SE (Becton Dickinson). Growth medium was adjusted to 150 μg/mL hygromycin and 0.5 μg/mL puromycin for cell propagation.
RECOMBINANT RECEPTOR BINDING ASSAY: Cells expressing recombinant human CL receptor/RAMP1 were washed with PBS and harvested in harvest buffer containing 50 mM HEPES, 1 mM EDTA and Complete protease inhibitors (Roche). The cell suspension was disrupted with a laboratory homogenizer and centrifuged at 48,000 g to isolate membranes. The pellets were resuspended in harvest buffer plus 250 mM sucrose and stored at −70° C. For binding assays, 20 μg of membranes were incubated in 1 ml binding buffer (10 mM HEPES, pH 7.4, 5 mM MgCl2, and 0.2% BSA) for 3 hours at room temperature containing 10 pM ^125I-hCGRP (GE Healthcare) and antagonist. The assay was terminated by filtration through 96-well GFB glass fiber filter plates (PerkinElmer) that had been blocked with 0.05% polyethyleneimine. The filters were washed 3 times with ice-cold assay buffer (10 mM HEPES, pH 7.4 and 5 mM MgCl2). Scintillation fluid was added and the plates were counted on a Topcount (Packard). Non-specific binding was determined and the data analysis was carried out with the apparent dissociation constant (Ki) determined by using a non-linear least squares fitting the bound CPM data to the equation below:
[formula] Where Y is observed CPM bound, Ymax is total bound counts, Ymin is non specific bound counts, (Ymax−Ymin) is specific bound counts, % Imax is the maximum percent inhibition, % I min is the minimum percent inhibition, radiolabel is the probe, and the Kd is the apparent dissociation constant for the radioligand for the receptor as determined by Hot saturation experiments.

SMILES	Ki [nM]
CC(C)(C)OC(=O)N1CC(c2ccccc2)C(N(Cc2cnc3cc4c(cc3c2)C[C@@]2(C4)C(=O)Nc3ncccc32)C(=O)C2CCOCC2)C1 (stereo partly drawn)	54
CN(C)CC(=O)N(Cc1cccc(F)c1)Cc1cnc2cc3c(cc2c1)C[C@@]1(C3)C(=O)Nc2ncccc21	10
O=C(C1CCOCC1)N(Cc1cnc2cc3c(cc2c1)C[C@@]1(C3)C(=O)Nc2ncccc21)[C@@H]1CCC[C@H]1OCc1ccccc1	0.41
O=C(C1CCOCC1)N(Cc1cc(Cl)cc(Cl)c1)Cc1cnc2cc3c(cc2c1)C[C@@]1(C3)C(=O)Nc2ncccc21	4.6
O=C(C1CCOCC1)N(Cc1cnc2cc3c(cc2c1)C[C@@]1(C3)C(=O)Nc2ncccc21)C1CCCC1c1ccccc1 (single isomer, unassigned) [21]	0.12
O=C(C1CCOCC1)N(Cc1cnc2cc3c(cc2c1)C[C@@]1(C3)C(=O)Nc2ncccc21)C1CNCC1c1ccccc1 (stereo partly drawn)	4.8
C[C@H](c1cccc(Cl)c1)N(Cc1cnc2cc3c(cc2c1)C[C@@]1(C3)C(=O)Nc2ncccc21)C(=O)C1CCOCC1	0.078
O=C(C1CCCCO1)N(Cc1cccc(F)c1)Cc1cnc2cc3c(cc2c1)C[C@@]1(C3)C(=O)Nc2ncccc21 (stereo partly drawn)	1.5
C[C@@H](c1cc(F)cc(F)c1)N(Cc1cnc2cc3c(cc2c1)C[C@@]1(C3)C(=O)Nc2ncccc21)C(=O)[C@](C)(OCc1ccccc1)C(F)(F)F	0.45
CSCCC(=O)N(Cc1cccc(F)c1)Cc1cnc2cc3c(cc2c1)C[C@@]1(C3)C(=O)Nc2ncccc21	1.6
CCOC(=O)CC(=O)N(Cc1cccc(F)c1)Cc1cnc2cc3c(cc2c1)C[C@@]1(C3)C(=O)Nc2ncccc21	1.2
O=C(C1CCOCC1)N(Cc1cnc2cc3c(cc2c1)C[C@@]1(C3)C(=O)Nc2ncccc21)C1CCCC1c1ccccc1 (single isomer, unassigned) [22]	0.098
CC(=O)OC(C)(C)C(=O)N(Cc1ccc2nc3c(cc2c1)CC1(C3)C(=O)Nc2ncccc21)[C@@H]1CCc2ccccc21 (stereo partly drawn)	0.075
CC(C)(C)C(=O)N(Cc1cnc2cc3c(cc2c1)C[C@@]1(C3)C(=O)Nc2ncccc21)C1CCOCC1	6
CC(=O)OC(C)(C)C(=O)N(Cc1ccc2nc3c(cc2c1)C[C@@]1(C3)C(=O)Nc2ncccc21)[C@@H]1CCc2ccccc21	0.092
